Measured values published in paper PMC2632899 (Nucleic Acids Research, 2008).

Biological target: Flag-DDB1 alone (human)
Test: pull-down

- binding result: binds
B1: GST-XPA fusion protein (wild type) (natural protein)
chain: MAAADGALPEAAALEQPAELPASVRASIERKRQRALMLRQARLAARPYSATAAAATGGMANVKAAPKIIDTGGGFILEEEEEEEQKIGKVVHQPGPVMEFDYVICEECGKEFMDSYLMNHFDLPTCDNCRDADDKHKLITKTEAKQEYLLKDCDLEKREPPLKFIVKKNPHHSQWGDMKLYLKLQIVKRSLEVWGSQEALEEAKEVRQENREKMKQKKFDKKVKELRRAVRSSVWKRETIVHQHEYGPEENLEDDMYRKTCTMCGHELTYEKM
